The values below come from patent publication US11370784B2 (MISSION THERAPEUTICS LIMITED, priority 2016, dated 2022).

By UniProt entry, the sequences of proteins in these tests, tags left out. Residues count along the entry.
UniProt Q70CQ3, 57-517 limits assumed: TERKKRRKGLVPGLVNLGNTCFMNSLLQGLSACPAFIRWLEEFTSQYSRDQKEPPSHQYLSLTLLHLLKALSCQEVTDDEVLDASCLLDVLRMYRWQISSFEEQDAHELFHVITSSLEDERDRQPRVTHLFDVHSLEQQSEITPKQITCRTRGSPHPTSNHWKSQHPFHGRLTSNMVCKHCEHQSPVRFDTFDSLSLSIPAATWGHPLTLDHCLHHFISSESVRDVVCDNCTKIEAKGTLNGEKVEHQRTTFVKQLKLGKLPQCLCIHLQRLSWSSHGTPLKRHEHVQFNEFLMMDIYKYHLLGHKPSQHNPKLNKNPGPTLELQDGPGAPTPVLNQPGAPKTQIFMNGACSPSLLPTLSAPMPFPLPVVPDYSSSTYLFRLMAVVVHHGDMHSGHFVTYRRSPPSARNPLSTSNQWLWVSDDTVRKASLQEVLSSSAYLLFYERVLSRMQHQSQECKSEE

Molecules are shown by their SMILES.

This test deals with USP30 (Homo sapiens (Human), UniProt Q70CQ3). The test is described as follows: USP30 biochemical IC50 assay. The conditions noted are these: read-out: IC50 range; fluorescence polarisation, TAMRA labelled peptide linked to ubiquitin as substrate; enzyme and compound incubated 30 min at room temp. In general terms: Polarisation of emitted light reports the rotation of a fluorescent probe.

The term IC50 denotes the concentration needed to halve the response being measured. Take `N#CN1CCC[C@](F)(C(=O)Nc2ccc(-c3ccnc4cn[nH]c34)cn2)C1`: the half-maximal inhibitory concentration (IC50) was 100 to 1000 nM.
